These results are taken from ChEMBL document CHEMBL1938351, “The discovery of potent antagonists of NPBWR1 (GPR7)” (Bioorg Med Chem Lett, 2012).

For experiment [1], the target named is T1, Neuropeptides B/W receptor type 1 (Mus musculus, UniProt P49681).
T1 sequence (P49681 whole entry): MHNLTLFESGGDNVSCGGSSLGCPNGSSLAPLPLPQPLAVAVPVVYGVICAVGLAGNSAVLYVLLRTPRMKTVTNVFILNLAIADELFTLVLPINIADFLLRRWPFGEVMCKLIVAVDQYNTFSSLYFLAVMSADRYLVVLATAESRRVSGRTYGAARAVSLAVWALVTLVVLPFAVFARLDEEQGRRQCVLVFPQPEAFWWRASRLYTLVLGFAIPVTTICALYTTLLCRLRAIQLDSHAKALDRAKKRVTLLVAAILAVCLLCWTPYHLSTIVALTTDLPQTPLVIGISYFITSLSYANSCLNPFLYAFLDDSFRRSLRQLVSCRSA
Put plainly: Displacement of [125]-hNPW23 from mouse NPBWR1 expressed in CHO-K1 cells membrane by scintillation proximity assay. It counts as cell membranes.

Experiment [2] deals with T1, Neuropeptides B/W receptor type 1. Put plainly: Antagonist activity at mouse NPBWR1 expressed in CHO-K1 cells assessed as inhibition of hNPW23 and forskolin-stimulated cAMP production after 1 hr by TR-FRET assay. The class given is functional, cell-based.

As to `COc1ccc(C2(N[C@@H]3CC[C@H](C(=O)N4CCN(c5nc6ccccc6o5)CC4)[C@@H](c4ccsc4)C3)CCC2)cc1`, the figures for the IC50 in experiment [1] and in experiment [2] were 0.69 nM and 5.9 nM, respectively.
For `COc1ccc(C(C)(C)N[C@@H]2CC[C@H](C(=O)N3CCN(c4nc5ccccc5o4)CC3)[C@@H](c3ccsc3)C2)cc1`, in that order: 1.9 nM and 9.2 nM.
In the case of `COc1ccc(C2(N[C@@H]3CC[C@H](C(=O)N4CCN(c5nc6cc(C)ccc6o5)CC4)[C@@H](c4ccsc4)C3)CCC2)cc1`, the IC50 came to 0.43 nM in experiment [1] and 3.9 nM in experiment [2].
The like results for `COc1ccc(C2(N[C@@H]3CC[C@H](C(=O)N4CCN(c5nnc(Br)s5)CC4)[C@@H](c4ccsc4)C3)CCC2)cc1` were, in that order, 2.6 nM and 12 nM.
Take `COc1ccc(C(C)(C)N[C@@H]2CC[C@H](C(=O)N3CCN(c4nc5ccccc5[nH]4)CC3)[C@@H](c3ccsc3)C2)cc1`: the concentration for half-maximal inhibition (IC50) in experiment [1] was found to be 2.4 nM; in experiment [2], 4.6 nM.
For `COc1ccc(C2(N[C@@H]3CC[C@H](C(=O)N4CCN(c5nnc(C(F)(F)F)s5)CC4)[C@@H](c4ccsc4)C3)CCC2)cc1`, in that order: 2.2 nM and 14 nM.
